Test results published in EP3494998A1, “GLYCOSYLATED PSMA INHIBITORS FOR IMAGING AND ENDORADIOTHERAPY” (Technische Universität München, priority 2017, dated 2019).
Where two headings read alike, the source gives them in different places.

Sequences of proteins named here, by UniProt entry; tags and fusion partners are left off. Residues count along the entry.
UniProt Q04609, whole entry: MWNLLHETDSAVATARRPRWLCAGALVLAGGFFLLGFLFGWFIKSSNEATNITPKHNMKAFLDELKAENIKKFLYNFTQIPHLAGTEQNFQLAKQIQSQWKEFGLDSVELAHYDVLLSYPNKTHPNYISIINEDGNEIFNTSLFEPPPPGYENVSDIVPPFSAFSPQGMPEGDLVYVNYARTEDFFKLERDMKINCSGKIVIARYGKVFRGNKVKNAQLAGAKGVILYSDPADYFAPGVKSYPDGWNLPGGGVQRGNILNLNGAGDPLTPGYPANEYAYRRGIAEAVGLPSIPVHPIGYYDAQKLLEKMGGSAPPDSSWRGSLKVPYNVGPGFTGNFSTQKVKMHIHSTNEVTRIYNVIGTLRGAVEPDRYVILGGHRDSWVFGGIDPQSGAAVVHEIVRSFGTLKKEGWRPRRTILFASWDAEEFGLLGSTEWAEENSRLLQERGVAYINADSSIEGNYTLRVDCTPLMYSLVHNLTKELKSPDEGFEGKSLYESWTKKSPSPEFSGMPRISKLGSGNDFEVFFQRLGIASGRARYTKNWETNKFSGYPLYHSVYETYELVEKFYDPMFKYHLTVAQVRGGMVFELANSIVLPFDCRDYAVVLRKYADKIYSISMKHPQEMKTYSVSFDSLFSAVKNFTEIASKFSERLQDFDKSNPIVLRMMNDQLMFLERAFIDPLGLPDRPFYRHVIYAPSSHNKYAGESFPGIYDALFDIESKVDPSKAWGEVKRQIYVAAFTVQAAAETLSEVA
UniProt P02768, 25-609: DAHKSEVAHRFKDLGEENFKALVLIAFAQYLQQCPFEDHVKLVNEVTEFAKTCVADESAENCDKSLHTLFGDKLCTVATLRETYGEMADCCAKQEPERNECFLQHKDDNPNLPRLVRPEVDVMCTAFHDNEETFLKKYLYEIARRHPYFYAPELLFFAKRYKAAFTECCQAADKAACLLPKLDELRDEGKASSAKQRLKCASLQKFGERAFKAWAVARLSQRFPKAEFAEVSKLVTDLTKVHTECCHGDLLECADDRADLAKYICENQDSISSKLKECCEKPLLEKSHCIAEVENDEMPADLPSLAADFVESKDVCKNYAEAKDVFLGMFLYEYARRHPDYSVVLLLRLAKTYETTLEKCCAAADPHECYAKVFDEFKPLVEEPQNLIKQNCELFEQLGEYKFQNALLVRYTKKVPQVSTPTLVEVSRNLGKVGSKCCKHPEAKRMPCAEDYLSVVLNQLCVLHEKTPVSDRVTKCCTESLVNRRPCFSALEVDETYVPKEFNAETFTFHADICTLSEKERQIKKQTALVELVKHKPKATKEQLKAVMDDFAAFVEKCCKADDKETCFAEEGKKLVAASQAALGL

Columns and labels:
[1] = molecular target: T1, PSMA (Homo sapiens, UniProt Q04609); assay: competitive binding assay (IC50) on LNCaP cells with ([125I]I-BA)KuE as radioligand; conditions: LNCaP cells (150,000/well); ([125I]I-BA)KuE (c = 0.2 nM) as radioligand; HBSS (1% BSA), 4°C, 1 h; natGa or natLu analogs; mean ± SD (n = 3)
T1 construct: PSMA-positive LNCAP cells (200265; Cell Lines Service GmbH) were cultivated; host or cells: LNCaP human prostate cancer cells

[2] = test system: LNCaP tumor xenografts; assay: µPET imaging in mice bearing LNCaP tumor xenografts; conditions: PMPA 8mg/kg coinjection; static image 1 h p.i.
[3] = molecular target: human serum albumin (HSA) (Homo sapiens, UniProt P02768); assay: HSA binding by HPLC on a column with immobilized human albumin; conditions: natGa- and natLu-labeled inhibitors; HPLC retention time with non-linear regression calibration on nine reference substances
[4] = test system: human blood samples

[^natGa]PSMA I&T Galactose [^nat/68Ga-13]
IC50 [1]: 7.9 ± 3.9 nM
tissue uptake in kidneys and LNCaP tumor on coinjection of PMPA [2]: reduced the uptake almost completely

[^natGa]PSMA I&T Cellubiose [^nat/68Ga-15]
HSA [%] [3]: 6.9%

[^natLu]PSMA I&T Mannose [^nat/177Lu-14]
HSA [%] [3]: 25.1%

[^natGa]PSMA I&T Mannose [^nat/68Ga-14]
HSA [%] [3]: 7.6%

[^natLu]PSMA I&T Galactose [^nat/177Lu-13]
Binding to erythrocytes ([4]; simultaneous incubation with PMPA (100 µM)): 29.5%
Binding to erythrocytes ([4]; without PMPA): 26%
